The values that follow come from patent US9657033B2, “Tetrahydronaphthyridine and related bicyclic compounds for inhibition of RORγ activity and the treatment of disease” (Merck Sharp & Dohme Corp., priority 2012, dated 2017).

Chains of the proteins cited; added tags and fusions are not shown. Residues count along the entry.
UniProt P51449, 269-508 limits assumed: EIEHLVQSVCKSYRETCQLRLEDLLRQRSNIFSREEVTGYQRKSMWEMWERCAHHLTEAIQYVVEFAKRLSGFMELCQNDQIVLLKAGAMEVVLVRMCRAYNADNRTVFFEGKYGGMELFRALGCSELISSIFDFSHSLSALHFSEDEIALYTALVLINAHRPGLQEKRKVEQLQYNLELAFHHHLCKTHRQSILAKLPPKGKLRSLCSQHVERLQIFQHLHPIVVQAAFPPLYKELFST

For this assay, the target named is RORγ-LBD (Homo sapiens (Human), UniProt P51449). The experiment in a line: RORγ-Ligand Binding Domain (LBD) TR-FRET Assay Protocol II. The settings on record: read-out: Protocol II Fret EC50; purified RORγ-LBD, SRC1 peptide, overnight at 4° C. Here is the method:
Part II—Procedures for RORγ-Ligand Binding Domain TR-FRET Assay Protocol II
HIS-tagged RORγ-LBD protein was expressed in SF9 cells using a baculovirus expression system. The RORγ-LBD protein was purified by […]. Separately, SF9 cells not expressing recombinant protein were lysed in TBS buffer (25 mM Tris, pH 8.0, 150 mM NaCl) under sonication. The lysate was added to the purified RORγ-LBD in a volume equivalent of 0.75 μL lysate (from 30,000 SF9 cells) per 75 femtomol of RORγ-LBD protein. The resulting mixture was diluted in assay buffer (50 mM Tris pH 7.0, 50 mM KCl, 1 mM EDTA, 0.1 mM DTT, 0.01% BSA) to obtain RORγ-LBD protein at a final concentration of 3 nM.
Compounds to be tested were injected to the assay plate using Acoustic Droplet Ejection technology by Echo 550 liquid handler (Labcyte, Calif.). […]
The final assay mixture was incubated overnight at 4° C., and the fluorescence signal was measured on an Envision plate reader: (Excitation filter=340 nm; APC emission=665 nm; Europium emission=615 nm; dichroic mirror=D400/D630; delay time=100 μs, integration time=200 μs). The EC50 value for test compounds was calculated from the quotient of the fluorescence signal at 665 nm divided by the fluorescence signal at 615 nm
A general note: TR-FRET usually uses a lanthanide donor and a delayed reading to cut background.

Turning to `CC(C)OC(=O)N[C@H]1Cc2ncc(NC(=O)c3c(Cl)cccc3Cl)cc2N(S(=O)(=O)c2cccc(C(F)(F)F)c2)C1` [Compound 47], the EC50 turned out to be 370 nM.

Regarding `CC(C)OC(=O)N[C@@H]1Cc2ncc(NC(=O)c3c(Cl)cccc3Cl)cc2N(S(=O)(=O)c2cccc(C(F)(F)F)c2)C1` [Compound 58], the EC50 worked out at 127 nM.

In general, EC50 refers to the concentration that produces a half-maximal response.
